# Assay results: paper PMC4826283 (Journal of nuclear medicine : official publication, Society …, 2014)
# Test system: kappa opioid receptor (KOR)
# Test: in vivo PET receptor occupancy
# Type: cell-based, Macaca mulatta
# Settings: rhesus monkey, brain
smiles,measurement,value
C=CCN1CC[C@]23c4c5ccc(O)c4O[C@H]2C(=O)CC[C@@]3(O)[C@H]1C5 [naloxone],% occupancy at 1 mg/kg,91 ± 2 % occupancy at 1 mg/kg
